“And” between values parts separate entries of the source, which are not always exact repeats. Identical values can stand only once.

The target in the assay is SARS-CoV-2 M^pro (Severe acute respiratory syndrome coronavirus 2, UniProt P0DTD1). Type of assay: binding.

With `CCN(CCO)CCCC(C)Nc1ccnc2cc(Cl)ccc12` (stereo not shown) [hydroxychloroquine], the “Tm of SARS-CoV-2 Mpro” value was 51.1 °C and 51.2 °C.

These data come from patent US20210330661A1 (China Medical University, priority 2020, published 2021).
